Test results reported in US20160250277A1, “[…] OPIOID RECEPTOR AGONISTS FOR PREVENTING, INHIBITING OR TREATING NAUSEA AND VOMITING” (CARA THERAPEUTICS, INC., priority 2013, published 2016).

Tests used:
[1] = system: patients following bunionectomy surgery; experiment: Phase 2 clinical trial CLIN2003, bunionectomy
human subjects = experiment: Phase 1 and Phase 2 clinical trials, overall safety; details: over 300 human subjects; intravenous infusion, short bolus or oral capsule
[2] = system: patients undergoing laparoscopic hysterectomy; experiment: Phase 2 clinical trial CLIN2002, laparoscopic hysterectomy; details: 0.04 mg/kg I.V. pre- and/or post-operatively

CC(C)C[C@@H](NC(=O)[C@@H](Cc1ccccc1)NC(=O)[C@H](N)Cc1ccccc1)C(=O)N[C@H](CCCCN)C(=O)N1CCC(N)(C(=O)O)CC1 [CR845, D-Phe-D-Phe-D-Leu-D-Lys-[ω(4-aminopiperidine-4-carboxylic acid)]-OH]
mean fentanyl use vs placebo ([1]; 48 hour period): no difference in mean fentanyl use | safety and tolerability ([1]; repeated I.V. 0.005 mg/kg): safe and generally well tolerated | safety and tolerability (human subjects): safe and well tolerated | safety and tolerability [2]: safe and generally well tolerated
